# From paper PMC9221018, “Sulfonamide-Derived Dithiocarbamate Gold(I) Complexes Induce the Apoptosis of Colon Cancer Cells by the Activation of Caspase 3 and Redox Imbalance” (Biomedicines, 2022)
# Test: n-octanol-water distribution coefficient, shake-flask method
# Format: physicochemical
# Conditions: n-octanol/buffered saline pH 7.4, shake-flask
# Method: The n-octanol−water coefficients of the complexes were determined using a shake-flask method, as reported previously. Briefly, 100 mL buffered-saline (0.15 M NaCl, 10 mM phosphate [PO4^3−] buffer, pH 7.4) and 100 mL n-octanol were shaken for 72 h. The addition of 1 mg of the complexes followed by the centrifugation and separation of both phases gave two solutions, which were analysed by UV absorbance spectroscopy to determine their concentration in each phase. The corresponding value of log P was defined as log{[compound(organic)]/[compound(aqueous)]}.
substance,measurement,value
[Au(S2CNHSO2-p-Me-C6H4)(IBnPropargyl)] [Complex 10],Log P7.4,0.36
